{
  "source": "patent US8735357B2",
  "about": "“Method of inducing antigen-specific T cells” (International Institute of Cancer Immunology, Inc., priority 2001, dated 2014)",
  "test_system": "WT1-3LL cells",
  "experiment": "Anti-tumor effects in mice transplanted subcutaneously with WT1-3LL cells",
  "type": "in vivo, mouse",
  "method": "3LL cells, a lung cancer cell line derived from a C57/BL6 mouse, were transfected in the usual manner with a cDNA for mouse WT1, and WT1-3LL cells thereby obtained were used.\n4) Transplantation of Tumor Cells and Schedule for Vaccination Into mice, 5×10^4 WT1-3LL cells were injected subcutaneously, and vaccination was started on the next day. Into flanks of the mice, 100 μg of Krestin was injected intradermally, and after 24 hours, 0.1 ml of a 2 mg/ml WT1 peptide (SEQ ID NO: 2) solution was injected intradermally at the same site. Taking these administrations as one course, three courses of vaccination were conducted in total, at intervals of one week. 2. Results",
  "data": [
    {"substance": "Arg Met Phe Pro Asn Ala Pro Tyr Leu (RMFPNAPYL) [WT1 peptide, 9-mer cancer antigen peptide derived from WT1]", "values": [
      {"measurement": "engraftment of tumor cells observed", "setting": "Day 18, 5×10^4 WT1-3LL cells s.c.", "result": "in all cases"},
      {"measurement": "average tumor diameter compared with the group received Krestin and the WT1 peptide", "setting": "Day 18 after tumor cell transplantation", "result": "greater"}
    ]}
  ]
}
